Earlier results on one substance are cited in article PMC5672155.

The target in this data set is Sec61α (Homo sapiens) (UniProt P61619).

Consider Calmodulin (from UniProt P0DP23), for which the Kd was 115 nM.

The Kd is the free concentration of one partner at which half of the binding sites on the other are occupied at equilibrium, for simple one-to-one binding.
